Literature values, collected in patent US5744485A, “Carbamates and ureas as modifiers of multi-drug resistance” (Vertex Pharmaceuticals Incorporated, priority 1995, dated 1998).

Conditions: Hait et al.; cited from earlier work

For “11-methyl-leucine cyclosporin [11-met-leu CsA]”, the immunosuppression is listed as “do not exert an immunosuppressive effect”.
